Measurements from article PMC12836348, “Alanine Mutagenesis Identifies Specific Amino Acids of Nemertide Alpha‑1 Activity and Its Binding to Target Receptors” (Journal of Natural Products, 2025).

System: BiNav
Assay: Ion channel panel, BiNav
Format: cell-based, Bombus impatiens
Design: key: “+” means tested and produced effect; “–“ means tested but no effect
Conditions: S12A at 5 μM; Xenopus oocytes, n ≥ 3
Procedure: For the expression of NaV channels (hNav1.1, rNaV1.2, rNaV1.3, rNaV1.4, hNaV1.5, hNaV1.6, hNav1.7, and the insect channel BgNaV1) in Xenopus laevis oocytes, the linearized plasmids were transcribed using the T7 or SP6 mMESSAGE-mMACHINE transcription kit (Ambion, Carlsbad, CA, USA). The harvesting of stage V and VI oocytes from an anaesthetized female X. laevis frog was described previously. , Oocytes were injected with 50 nL of cRNA at a concentration of 1 ng/nL using a microinjector (Drummond Scientific, Broomall, PA, USA). The oocytes were incubated in a solution containing 96 mM NaCl, 2 mM KCl, 1.8 mM CaCl2, 2 mM MgCl2, and 5 mM HEPES (pH 7.4), supplemented with 50 mg/L gentamycin sulfate. […] Whole-cell currents from oocytes were recorded 1–4 days after injection. […]
To assess the concentration–response relationships, data were fitted with the Hill equation: y = 100/[1 + (EC50/[toxin])^ h ], where y is the amplitude of the toxin-induced effect (y = I 30 ms/I peak where I 30 ms is the current value at 30 ms in the presence of toxin and I peak is the peak current amplitude in control conditions), EC50 is the toxin concentration at half-maximal efficacy, [toxin] is the toxin concentration, and h is the Hill coefficient. […] ASIC1a currents were measured in ND96 solutions at a pH of 7.4 and 4.5, at a holding potential of −70 mV during 400 s, and the data were filtered at 20 Hz. […]

Question: For `CC[C@H](C)[C@@H]1NC(=O)[C@@H](NC(=O)CN)CSSC[C@@H]2NC(=O)[C@@H]3CSSC[C@@H](C(=O)N[C@@H](CC(N)=O)C(=O)N4C[C@H](O)C[C@H]4C(=O)N4C[C@H](O)C[C@H]4C(=O)N[C@@H](CC(N)=O)C(=O)N[C@@H](CCC(N)=O)C(=O)O)NC(=O)[C@H](CCCCN)NC(=O)[C@H](Cc4ccccc4)NC(=O)[C@H](CC(N)=O)NC(=O)[C@H](Cc4c[nH]c5ccccc45)NC(=O)CNC(=O)[C@H](CSSC[C@H](NC(=O)[C@H](Cc4ccccc4)NC(=O)[C@H](CO)NC(=O)CNC(=O)[C@H]([C@@H](C)O)NC(=O)[C@H](C)NC1=O)C(=O)N[C@@H]([C@@H](C)O)C(=O)N[C@@H](CC(C)C)C(=O)N[C@@H](C)C(=O)N[C@@H](CCCCN)C(=O)NCC(=O)N3)NC(=O)[C@H](CC(N)=O)NC(=O)[C@H](CCCCN)NC(=O)[C@H]([C@@H](C)O)NC2=O` [Peptide S12A], which “effect on BiNav” value is on record?
Answer: +
